# Experimental data taken from PubChem BioAssay AID2100 (National Center for Advancing Translational Sciences (NCATS), 2009).
# This is a selection; strong and weak results do not stand in their true shares. Records with an inconclusive call do not appear. The source made the active and inactive calls. Calls follow the shape of the dose curve; as a rule, active = well fitted inhibition curve with a large enough effect; inconclusive = small, poorly fitted or top-dose-only effect, or another doubt; inactive = no such curve, though single readings can be large or run the other way.
# Target: Lysosomal alpha-glucosidase (Homo sapiens) (UniProt P10253)
# Assay: qHTS Assay for Inhibitors and Activators of Human alpha-Glucosidase Cleavage of Glycogen;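 also: 0% = full enzyme reaction and -100% = no-enzyme basal signal; the screen sought inhibitors and activators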
# Settings: recombinant GAA, glycogen substrate, Amplex Red glucose oxidase fluorescence; at 76.4 µM (top of the series)
# Description: NIH Chemical Genomics Center [NCGC] NIH Molecular Libraries Probe Production Centers Network [MLPCN] MLPCN Grant: R03 MH084841-01 Assay Submitter (PI): Wei Zheng NCGC Assay Overview: Alpha-glucosidase is responsible for the hydrolysis of terminal, non-reducing 1,4-linked alpha-D-glucose residues, which releases alpha-D-glucose. It is a lysosomal hydrolase that is required for the degradation of a small percentage (1-3%) of cellular glycogen in humans. Deficiency of this enzyme results in glycogen-storage disease type II (GSDII), also referred to as Pompe disease, an autosomal recessive disorder. Structurally normal glycogen is accumulated in the lysosomes and cytoplasm in affected patients, primarily in muscle tissues. […]
# NCGC Assay Protocol Summary: This is an enzyme assay using glycogen from bovine liver (Sigma catalog #: G0885) as the substrate and recombinant human alpha-glucosidase as the enzyme preparation. Upon hydrolysis of the substrate, the glucose product can be detected using the Amplex Red Glucose Oxidase Assay Kit (Invitrogen catalog #: A22189). The product of this reaction can be read with a fluorescence plate reader with an excitation at 573 nm and an emission at 610 nm. […] The AC50 values were determined from concentration-response data modeled with the standard Hill equation. […] (7) Detect the assay plate in a ViewLux plate reader (PerkinElmer) with Ex=573 nm and Em=610nm. […]
row,Structure (SMILES),"activity change, negative = inhibition"
1,COc1ccc(OP(C)(=O)Nc2cccc(Br)c2)cc1 (stereo unspecified),inactive: 1.79%
